Results reported in patent US9572811B2, “Treatment of dry eye” (PRINCIPIA BIOPHARMA INC., priority 2012, dated 2017).

Protein sequences, listed by entry. Tags and fused reporters are not part of them. Lines headed by an entry give the natural chain unless they say otherwise; changes in a name come on top.
UniProt Q06187: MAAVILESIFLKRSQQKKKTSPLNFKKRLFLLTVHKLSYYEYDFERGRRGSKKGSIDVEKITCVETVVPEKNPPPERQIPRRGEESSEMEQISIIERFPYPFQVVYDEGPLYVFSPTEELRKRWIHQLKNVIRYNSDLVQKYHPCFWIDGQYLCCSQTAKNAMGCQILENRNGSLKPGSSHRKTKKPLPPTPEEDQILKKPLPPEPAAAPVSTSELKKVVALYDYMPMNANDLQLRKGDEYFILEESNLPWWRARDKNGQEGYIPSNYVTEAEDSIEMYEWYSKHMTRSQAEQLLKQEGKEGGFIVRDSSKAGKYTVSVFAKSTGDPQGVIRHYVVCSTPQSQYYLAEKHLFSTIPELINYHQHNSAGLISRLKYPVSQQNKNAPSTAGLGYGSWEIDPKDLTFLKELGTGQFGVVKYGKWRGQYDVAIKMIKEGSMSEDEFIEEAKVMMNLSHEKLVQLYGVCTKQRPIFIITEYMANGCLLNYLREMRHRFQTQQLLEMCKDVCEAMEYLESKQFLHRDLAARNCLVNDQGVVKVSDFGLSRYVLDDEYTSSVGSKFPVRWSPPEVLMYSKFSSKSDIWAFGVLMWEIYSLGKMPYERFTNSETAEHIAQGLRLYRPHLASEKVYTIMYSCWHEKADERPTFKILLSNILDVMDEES

Molecular target: human recombinant Btk (Homo sapiens (Human), UniProt Q06187)
Assay: Btk enzymatic activity assay (Caliper-based kinase assay)
Type: biochemical
Conditions: human recombinant Btk 2 nM, ATP 40 μM, peptide substrate 1 μM, room temperature 3 h

| Structure (SMILES) | pIC50 |
| --- | --- |
| CNC(C)(C)C=C(C#N)C(=O)N1CCC[C@H]1Cn1nc(-c2ccc(Oc3ccccc3)cc2F)c2c(N)ncnc21 [Cpd 83B, (S)-2-(2-((4-amino-3-(2-fluoro-4-phenoxyphenyl)-1H-pyrazolo[3,4-d]pyrimidin-1-yl)methyl)pyrrolidine-1-carbonyl)-4-methyl-4-(methylamino)pent-2-enenitrile] | 7.80 |
| CN(C)C(C)(C)C=C(C#N)C(=O)N1CCC[C@@H]1Cn1nc(-c2ccc(Oc3ccccc3)cc2F)c2c(N)ncnc21 [Cpd 84A, (R)-2-(2-((4-amino-3-(2-fluoro-4-phenoxyphenyl)-1H-pyrazolo[3,4-d]pyrimidin-1-yl)methyl)pyrrolidine-1-carbonyl)-4-(dimethylamino)-4-methylpent-2-enenitrile] | 8.44 |
| Cc1c(-c2ccc(Oc3ccccc3)cc2)c2c(N)ncnc2n1C[C@@H]1CCCN1C(=O)/C(C#N)=C\C(C)(C)N(C)C [Cpd 77B, (S)-2-(2-((4-amino-6-methyl-5-(4-phenoxyphenyl)-7H-pyrrolo[2,3-d]pyrimidin-7-yl)methyl)pyrrolidine-1-carbonyl)-4-(dimethylamino)-4-methylpent-2-enenitrile] | 8.15 |
| Cc1c(-c2ccc(Oc3ccccc3)cc2F)c2c(N)ncnc2n1C[C@@H]1CCCN1C(=O)C(C#N)=CC1CC1 [Cpd 65B, (S)-2-(2-((4-amino-5-(2-fluoro-4-phenoxyphenyl)-6-methyl-7H-pyrrolo[2,3-d]pyrimidin-7-yl)methyl)pyrrolidine-1-carbonyl)-3-cyclopropylacrylonitrile] | 7.25 |

pIC50: −log10 of the molar value.
